Measured values reported in ChEMBL document CHEMBL1127843, “2-(3,4-Dichlorophenyl)-N-methyl-N-[(1S)-1-(3-isothiocyanatophenyl)-2-(1-pyrrolidinyl)ethyl]acetamide: an opioid receptor affinity label that produces selective and long-lasting kappa antagonism in mice” (J Med Chem, 1994).

Amino acid sequences for entries named in this document (tags omitted). A change or cut given only in a name is not applied to a line headed by its entry.
UniProt P41144: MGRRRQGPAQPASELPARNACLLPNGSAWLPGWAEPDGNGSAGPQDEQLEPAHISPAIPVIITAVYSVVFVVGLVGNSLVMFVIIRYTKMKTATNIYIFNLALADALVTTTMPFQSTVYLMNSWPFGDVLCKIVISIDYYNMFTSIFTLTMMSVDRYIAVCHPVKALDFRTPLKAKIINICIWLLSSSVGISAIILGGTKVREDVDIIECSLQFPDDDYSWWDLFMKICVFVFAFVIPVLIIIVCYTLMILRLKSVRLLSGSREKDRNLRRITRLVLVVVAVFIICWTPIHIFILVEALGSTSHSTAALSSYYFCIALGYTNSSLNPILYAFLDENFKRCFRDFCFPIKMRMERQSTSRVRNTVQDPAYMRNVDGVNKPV

Biological target: Kappa-type opioid receptor (Cavia porcellus) (UniProt P41144)
Assay: Agonist potency of compound was evaluated towards kappa opioid receptor in absence of antagonist in guinea pig ileum(GPI)

SMILES: CN(C(=O)Cc1ccc(Cl)c(Cl)c1)[C@H](CN1CCCC1)c1cccc(N=C=S)c1
- Ke: 0.3 nM
